AlphaSeq binding of Ab-14 light chain variants to a spike HR2 peptide

Antigen: PDVDLGDISGINAS, a 14-residue peptide of the SARS-CoV-2 spike HR2 region.

Parent scFv Ab-14: VH joined to VL by a 15-residue (Gly4Ser)3 linker. Changes lie in the light chain CDRs alone.
VH: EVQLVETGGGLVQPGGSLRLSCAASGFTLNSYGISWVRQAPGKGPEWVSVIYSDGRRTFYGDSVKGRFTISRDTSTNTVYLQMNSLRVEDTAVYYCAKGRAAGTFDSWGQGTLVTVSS
VL: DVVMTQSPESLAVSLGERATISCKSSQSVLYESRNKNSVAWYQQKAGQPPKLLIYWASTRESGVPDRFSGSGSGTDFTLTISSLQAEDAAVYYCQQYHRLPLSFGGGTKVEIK

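The parent was found by panning a naive human phage display library on the peptide. The variants were designed computationally from a first round of random CDR variants and then made and measured. Group labels follow the data file (Ctrl: baseline library sampled from a position-specific scoring matrix, with some repeated check sequences; Rand: our label for a block that the file lists under HC and that is probably the random mutants of the ten best first-round binders; En: ensemble of fine-tuned language models; GP: Gaussian process model; HC: hill climbing; Gen: genetic algorithm; Gibbs: Gibbs sampling; a sequence that several methods proposed may carry one label only). Affinity was read by AlphaSeq, a pooled yeast mating assay with surface-displayed partners. Pairs that bind mate more often; barcode pairs of the diploids are counted by sequencing. The ratio of observed to expected reads was calibrated, replicate by replicate, on BCL2-family standards whose Kd was known from biolayer interferometry. There are six technical replicates.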

The parent's light chain CDRs are KSSQSVLYESRNKNSVA, WASTRES, QQYHRLPLS; each variant's own CDRs replace them letter for letter. Values are apparent Kd, the geometric mean of the replicates that gave a signal; lower means stronger binding. "nd" means that the variant was in the library but no mating with the target was seen in any replicate; the authors take this as a sign of poor binding, and no number exists. Order: sorted from the lowest average up, undetected variants last.

Kd (apparent),seen in,CDR-L1,CDR-L2,CDR-L3,group
390 pM,6/6,KLPQGVLYESRNKNSVA,NASTRES,QQYHRLPLS,GP_HC
420 pM,6/6,KLSQSDLYESRNKNSVA,NASTRMS,QQYHRLPLS,GP_Gen
560 pM,6/6,KLSQSELYESRNKNSVA,GASTRCE,QQYHRLPLS,GP_Gibbs
690 pM,6/6,KLSQSELYESRMKNSVA,EASTRES,QQYHRLPLS,GP_Gen
820 pM,6/6,KLSQSMLYESRNKNSVA,GASTRES,QQYHRLPLS,GP_Gen
840 pM,6/6,KLQQSVLYESRNCNSVA,NASTRES,QQYHRLPLS,GP_Gen
900 pM,6/6,KLQQSFLYESRNKNSVA,EASTRCS,QQYHRLPLS,GP_Gen
970 pM,6/6,KVSQSVLYESRNKNSVA,EASTREA,QQYHRLPLS,GP_Gen
1.0 nM,6/6,KVSQSVLYEFRNKNSVA,EASTRES,QQYHRLPLS,Ctrl
1.0 nM,6/6,KVSQSCLYESRNKNNVA,EASTRES,QQYHRLPLS,GP_Gen
1.0 nM,6/6,QLSQSFLYESRNKNSVA,GASTRES,QQYHRLTLS,GP_HC
1.2 nM,6/6,KLSQSVLYESRNKNSVA,EASTREV,QQYHRLPLS,GP_Gen
1.2 nM,6/6,KSSISYLSESRNFNSVA,EASTREQ,QQYHRLPLS,GP_HC
1.3 nM,6/6,KIGYNTGTESFRQDNIA,DNREREE,QQYYRLPLS,En_Gen
1.4 nM,6/6,KLSQSDLYESRNSNSVA,GASTRES,QQYHRLPLS,GP_Gen
1.4 nM,6/6,KLSQSVGYQSRNKWNVA,NASTRES,QQYHRLPLS,GP_Gibbs
1.5 nM,6/6,KFEMLWDYEDRNLNSVA,NASTRED,QQYHRLPLS,GP_Gibbs
1.6 nM,6/6,KLGGVTEYEMMNKNSVA,QMTTRES,QQYHRLPLS,En_HC
1.6 nM,6/6,TISQSAQQELHNKNSVA,DLNVRGS,QQYDRLPLS,En_HC
1.9 nM,6/6,KSMQSVLYESRDKNSVA,HASTRED,QQYHRLPLS,GP_HC
2.0 nM,6/6,KLSQSVMYGQRNKNSVA,NASTRMS,QQYHRLPLY,GP_Gibbs
2.1 nM,6/6,ALRQKGFELHGDRQSIA,HSDTRAA,QQYSRLPLA,En_Gibbs
2.1 nM,6/6,KSSISHLYESRNTNSVA,EASTRES,QQYHRLPLS,GP_HC
2.2 nM,6/6,ALSESMDMTSRNVNSVA,DLTTRGN,QQYHRLPLS,En_HC
2.4 nM,6/6,KLGGVTEYEMRNVNSVA,QMTTRES,QQYHRLPLS,En_HC
2.4 nM,6/6,NIYQAMHTLSQMKNNVA,DVNERGD,QQYFRLPLS,En_Gen
2.5 nM,6/6,KSGQGELYESRNKNSVA,GASLRES,QQYHRLPLS,GP_HC
2.6 nM,6/6,HISMLTLQGMRHRNSVA,QMTTREN,QQYDRLPLM,En_Gen
2.8 nM,6/6,KITATMRFEQKQSNNIA,EVTTRSK,QQYYRLPLS,En_Gen
2.9 nM,6/6,IISQSMLYESRNKNSVA,NASTRWS,QQYHRLPLS,GP_Gibbs
3.2 nM,6/6,KLPGATMQESVSKNSVA,ELSTRGS,QQYHRLPLS,En_HC
3.3 nM,6/6,MISDLTYYGLRNMNSVA,DLSTRGN,QQYDRLPLS,En_HC
3.5 nM,6/6,KLVQSQLYESRNKNSVA,NASQRES,QQYHRLPLS,GP_Gen
3.5 nM,6/6,KLSLMYQHTSRNKNNIA,ERSTRES,QQYHHLPLS,En_HC
3.7 nM,6/6,KIGMTLNTLMHQKNNVA,DLVTREN,QQYFRLPLS,En_Gen
4.2 nM,6/6,TLMHHQDYYGEEKKSIA,NAIIKNE,QQYSRLPLA,En_Gibbs
4.2 nM,6/6,KVKGMMHQMGTQHQNIA,DMAIKCD,QQYQRLPLH,En_Gibbs
4.4 nM,6/6,KISQSVLYESVNKNSVA,WASTRES,QQYHRLPLS,Ctrl
4.5 nM,6/6,KSAQSKLYDSDNKNPVA,QASTRES,QQYHRLPLR,Ctrl
4.6 nM,6/6,MVNQIMDHLSKQTNNVA,ETTTREE,QQYERLPLS,En_Gen
4.8 nM,6/6,KSSQSVLNESDNKNSVA,SASTRES,QWYTRLPLS,Ctrl
5.1 nM,6/6,IISEVDAYESRNKNSIA,DQSTRGS,QQYDRLPLS,En_HC
5.2 nM,6/6,KLSQSYLYESRNKNSVA,HASTRLS,QQYHRLPLS,GP_Gen
5.3 nM,6/6,TISYSANMTGLNRNSVA,QAEERLE,QQYHRLPLS,En_HC
5.7 nM,6/6,KIFQSWLYEQRNVNSVA,HASQRLD,QQYHRLPLS,GP_Gibbs
7.5 nM,4/6,GIHSQMVGTSAVKENVA,NANERLE,QQYQRLPLT,En_Gibbs
7.9 nM,6/6,KSLQSELYESRNFNSVA,HASTRED,QQYHRLPLS,GP_HC
8.0 nM,6/6,KLRLHNLMFYQNENSIA,GVSNRAY,QQYYHLPLN,En_Gibbs
8.0 nM,6/6,KSSQLVKFESRNKNSVA,DASTRES,QQYHRLPLS,GP_HC
9.0 nM,6/6,KLYEMSYELSGKTHSVA,DNSTRGD,QQYFRLPLQ,En_Gen
9.1 nM,6/6,KWSQSVDLESRNDNSVA,AASCRED,QQYHRLPLS,GP_Gibbs
9.7 nM,6/6,KLSQVTHSESRLKNSIA,EMVTREV,QQYDRLPLS,En_HC
12 nM,6/6,IISQVDAYESRNKNSIA,DQSNRGS,QQYDRLPLS,En_HC
14 nM,6/6,KLDMFIPSQWEWDASIA,GATLRNT,QDYARLPLS,En_Gibbs
15 nM,6/6,KLRMSTGYESRMKDSIA,DNSTRGR,QQYHRLPLS,En_HC
20 nM,6/6,NLGFEDANDNRGMMAVA,DVNTVGE,QHYNRLPLS,En_Gibbs
23 nM,6/6,FSLQSVLQESRNFNSVA,HASTRED,QQYHRLPLS,GP_HC
55 nM,6/6,KSSISYLYESRNKNSVA,EASTRES,QYYHRLPLS,Rand
56 nM,1/6,KLSLSWLFESIEHNSVA,ERSTRES,QDYNRLPLS,En_HC
64 nM,6/6,MIFYGQERDIAHENSIA,NDHEVSK,QQYYRLPLT,En_Gibbs
65 nM,3/6,MLSQMWGTGMKASNSVA,QASVRFN,QQYHRLPLI,En_Gen
71 nM,5/6,KLSVSTLFESIEKNSVA,ERSTRES,QDYNRLPLS,En_HC
75 nM,6/6,QISDLVKMESRNTNSVA,DNSTRGS,QQYDRLPLS,En_HC
86 nM,1/6,KSSQSVLYESRNANSVA,WASTRES,QQYHRLPLA,Ctrl
96 nM,5/6,KSALSVLYESGHKNSVA,WASTRES,QQYHRLPLS,Ctrl
280 nM,5/6,KVDMYELPNGFNRSHVA,QAEVRAP,QQYWRLPLE,En_Gibbs
nd,0/6,RIEDHHAEGEMRHNSIA,EEHYRMD,QHYSRLPLA,En_Gibbs
nd,0/6,KDSQSVLGESFNKNAVA,WASTREA,QQYHRLPLD,Ctrl
nd,0/6,KISQMQRVGSTHHNSIA,EEATRAK,QQYHRLPLA,En_Gen
nd,0/6,KSSQSVLYESSLKNMVA,WASTRES,YQYHRLPLS,Ctrl
nd,0/6,HMSHLTLGGMRARNSVA,QMTTREN,QQYDRLPLA,En_Gen
nd,0/6,KTSQSVRYESRNKNSVA,WASTRES,QQYHRLPLS,Ctrl
nd,0/6,CSSQSVPYESRNLNSVA,GASTRES,QQCHDLPLS,Ctrl

Values of this round are not directly comparable with the first-round values of the same sequences. In the paper, a design with two or fewer of six values counts as a poor binder. Of ten entries with the parent sequence, four were seen in most replicates (averages 2.2 nM to 240 nM), three in one and three in none, so single entries are noisy. Three control strains display no target. For all light chain designs, 4% of the pairings with them gave a signal, with a median of 430 nM and one signal in twenty below 38 nM, so weak values seen in few replicates may be background.

Source: Li et al. 2023 (doi:10.1038/s41467-023-39022-2), MIT Lincoln Laboratory and A-Alpha Bio; data file from the FLAb repository.